The target in assay [1] is GSK3alpha (Homo sapiens, UniProt P49840). The assay is described as follows: GSK3alpha assay (same as the GSK3beta assay, 0.25 ng/μl GSK3alpha). The settings on record: ranges of pIC50 (−log IC50 (M)), 1 μM ATP. The protocol: (§1) GSK3beta assays were performed at room temperature in a 100 μl reaction volume of 25 mM Tris (pH 7.4) containing 10 mM MgCl2.6H2O, 1 mM DTI, 0.1 mgiml BSA, 5% glycerol and containing 5.7 ng/μl GSK3β, 5 μM biotinylated phosphorylated CREB peptide, 1 μM ATP, 0.85 μCi/ml ATP-P^33 and a suitable amount of a test compound of formula (I). After one hour, the reaction was terminated by adding 70 μl of Stop mix (0.1 mM ATP, 5 mg/ml streptavidin coated PVT SPA bead pH 11.0). The beads to which the phosphorylated CREB peptide is attached were allowed to settle overnight and the radioactivity of the beads was counted in a microtiterplate scintillation counter and compared with the results obtained in a control experiment (without the presence of a test compound) in order to determine the percentage of GSK3β inhibition. The IC50 value, i.e. the concentration (M) of the test compound at which 50% of GSK3β is inhibited, was calculated from the dose response curve obtained by performing the above-described GSK3β assay in the presence of different amounts of the test compound.
The GSK3alpha assay was performed in the same way as described above for the GSK3beta assay except for the concentration of GSK3alpha which is 0.25 ng/μl.

Sequences of proteins named here, by UniProt entry; tags and fusion partners are left off.
UniProt P49840, whole entry: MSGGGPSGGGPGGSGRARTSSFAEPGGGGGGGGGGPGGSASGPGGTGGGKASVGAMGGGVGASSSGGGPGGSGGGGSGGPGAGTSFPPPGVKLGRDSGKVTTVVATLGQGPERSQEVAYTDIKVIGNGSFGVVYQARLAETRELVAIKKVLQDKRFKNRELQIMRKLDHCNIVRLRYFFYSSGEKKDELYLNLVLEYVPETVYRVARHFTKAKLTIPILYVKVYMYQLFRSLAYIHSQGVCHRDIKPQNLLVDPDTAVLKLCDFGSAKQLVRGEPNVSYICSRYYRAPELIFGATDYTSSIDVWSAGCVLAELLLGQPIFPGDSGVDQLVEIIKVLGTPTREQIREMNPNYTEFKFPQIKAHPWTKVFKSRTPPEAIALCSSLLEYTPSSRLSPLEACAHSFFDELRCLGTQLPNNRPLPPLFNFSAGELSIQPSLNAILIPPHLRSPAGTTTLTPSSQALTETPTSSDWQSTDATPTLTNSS
UniProt P49841, whole entry: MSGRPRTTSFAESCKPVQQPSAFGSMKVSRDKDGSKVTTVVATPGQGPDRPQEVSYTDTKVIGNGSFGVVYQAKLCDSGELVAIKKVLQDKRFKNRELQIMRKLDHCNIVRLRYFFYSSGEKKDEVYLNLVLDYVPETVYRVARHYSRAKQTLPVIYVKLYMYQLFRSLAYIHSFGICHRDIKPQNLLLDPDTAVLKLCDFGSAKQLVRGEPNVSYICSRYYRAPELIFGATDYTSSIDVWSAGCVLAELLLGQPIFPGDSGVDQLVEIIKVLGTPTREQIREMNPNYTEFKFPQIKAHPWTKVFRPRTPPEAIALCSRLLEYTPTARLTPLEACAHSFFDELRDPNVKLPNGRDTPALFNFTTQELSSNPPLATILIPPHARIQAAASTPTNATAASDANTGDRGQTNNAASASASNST

Assay [2] has as its target GSK3β (Homo sapiens, UniProt P49841). As to the kind of experiment: GSK3beta assay (SPA, biotinylated phosphorylated CREB peptide, ATP-P33). The settings on record: ranges of pIC50 (−log IC50 (M)); 1 μM ATP, room temperature, one hour. The protocol:
as §1

Some results are limits rather than exact numbers.

In the case of `CN1CCN(C(=O)c2ccc(Nc3ncc4nnn(-c5cccc(CCO)c5)c4n3)cc2)CC1`, the “GSK3a pIC50” value in assay [1] is on record as >8. Besides, the “GSK3b pIC50” value in assay [2] is given as >8.

Source of the values: patent US7449465B2, “Triazolopyrimidine derivatives as glycogen synthase kinase 3 inhibitors” (Janssen Pharmaceutica, N.V., priority 2003, dated 2008).
